From patent publication US20080286350A1, “Formulation of Multivalent Antibody Constructs and Use of Same for Cancer Therapy” (BC CANCER AGENCY, priority 2004, published 2008)

Key:
[1] = tested on: LCC6^HER2 breast cancer cells; experiment: Cell viability assay, fraction of cells affected (fa), LCC6^HER2; type: cell-based
Description: (§1) FIGS. 5(a)-(d) are a series of bar graphs summarizing results for in vitro treatment of cancer cell lines with free bivalent or liposomal multivalent Ab constructs. […] Fraction of cells affected (fa) was calculated as follows: fa=1−fu, where fu was the fraction of remaining viable cells calculated as the ratio of the absorbance readings from the MTT assay for treated and untreated groups. Data represent mean ±S.E.M. from 3 independent experiments. * and ^# denote P<0.05 as compared to the free Ab treatment (ANOVA and Scheffe test for post-hoc comparisons).
(§2) Cells (3,500 cells/well for LCC6^HER2 and MCF7^HER2, and 20-50,000 cells/well for Ramos and 20,000 cells/well for Z-138) were seeded in 96-well plates. In the case of LCC6^HER2 and MCF7^HER2 cells, treatment was added after an overnight incubation to allow cell adherence to plates. In the case of Ramos and Z-138 cells, treatment was added on the same day after seeding. Cell viability was determined using 3-(4,5-dimethylthiazol-2-yl)-2,5-diphenyltetrazolium bromide (MTT) as previously described ^28 or Alamar Blue added in 10 μL/well with an 18-h incubation before reading fluorescence in a Fluorstar (v 1.2) plate reader (BMG Labtechnologies, Offenburg, Germany).
(§3) To test if the biological activities of the Ab would be enhanced when presented in the multivalent format, the activity of the free, bivalent Ab was compared to that of the multivalent construct in the respective cancer cell lines. Standard cell viability assays were used to determine the fraction of cells affected (fa) upon treatment. For trastuzumab, testing was conducted in LCC6^HER2 and MCF7^HER2 breast cancer cell lines under various culture conditions (FIG. 5a, b).

[2] = tested on: MCF7^HER2 breast cancer cells; experiment: Cell viability assay, fraction of cells affected (fa), MCF7^HER2; type: cell-based
Description: as §1, §2, §3

[3] = tested on: HER2 and its downstream target Akt; experiment: Western blot analyses, LCC6^HER2; type: cell-based; settings: 200 μg/mL, 5 days, reduced serum (0.1%)
Description: FIGS. 6(a)-6(b) are bar graphs and Western blot analyses showing modulation of cancer cell survival pathways by multivalent liposomal Ab constructs. […] The concentration of trastuzumab was 200 μg/mL. (b) Representative cell cycle analysis, DAPI staining and Western blot analyses of Z-138 cells after exposure to free or liposomal rituximab for 3 days. The concentration of rituximab was 15 μg/mL. […] For DAPI staining, yellow arrows indicate apoptotic morphology of DNA condensation or fragmentation associated with Z-138 cells exposed to various treatments. The scale bar is equivalent to 50 μm, and all images are shown at the same magnification.
The following antibodies were used in this study: anti-p-HER2-Tyr-1248/Tyr-1173; anti-HER2; anti-p-Akt-Ser-473 and anti-Akt (all were rabbit polyclonal, New England Biolabs) and anti-human β-actin (mouse monoclonal, Sigma). The secondary antibody was horseradish peroxidase-conjugated anti-mouse or anti-rabbit IgG (Promega, Madison, Wis.). Proteins were detected by enhanced chemiluminescence (Amersham Pharmacia Biotech, Buckinghamshire, England), and visualized after exposure to Kodak autoradiography film. Equivalent amounts of protein (30 μg/lane determined by Bradford assay) were resolved by 12% SDS-polyacrylamide pre-made gels (Bio-Rad).

[4] = tested on: LCC6^HER2 breast tumor xenograft; experiment: In vivo efficacy, LCC6^HER2 breast tumor xenograft model; parameters: species or system mice; settings: 1 mg/kg i.v. twice weekly for 5 weeks, from Day 18
[5] = mouse, in vivo, 100 mg/kg
[6] = 0.1% serum or heregulin, 5 days
[7] = 10% serum, 5 days, 1 mg/mL, data not shown
[8] = 0.1% serum or heregulin, 200 μg/mL

Substance	fraction of cells affected (fa), maximum [1, 6]	fraction of cells affected (fa) ([1]; 10% serum, 5 days)	activity (fa) at 1 mg/mL, in words [1, 7]	fraction of cells affected (fa), maximum [2, 6]	fraction of cells affected (fa) ([2]; 10% serum, 5 days)	activity (fa) at 1 mg/mL, in words [2, 7]	expression of p-HER2 and total HER2 [3]	p-Akt level [3]	anti-tumor activity (tumor growth) [4]	fraction of cells affected (fa) [1, 8]	fa values compared to free trastuzumab, in words ([1]; 5 days, above 10 μg/mL)	fraction of cells affected (fa) [2, 8]	fa values compared to free trastuzumab, in words ([2]; 5 days, above 100 μg/mL)	circulation longevity of the liposome carrier [5]
free trastuzumab: therapeutic antibody; target molecule HER2	≤ 0.2	at most 0.12	no improvement in the activity	≤ 0.2	at most 0.12	no improvement in the activity	down-regulation	not capable of reducing	long-term tumor growth inhibition	–	–	–	–	–
liposomal trastuzumab: trastuzumab conjugated to DSPC/CHOL/DSPE-PEG2000/DSPE-PEG2000-MAL liposomes, Ab-to-lipid ratio 50-70 μg/μmol	–	–	–	–	–	–	complete loss	complete loss	–	~0.7	significantly higher	~0.7	significantly higher	did not significantly alter
